Test results as given in publication PMC3615554 (Journal of biomolecular screening, 2012).

Protein sequences, listed by entry. Tags and fused reporters are not part of them. Residues count along the entry.
UniProt P00533, 25-1210: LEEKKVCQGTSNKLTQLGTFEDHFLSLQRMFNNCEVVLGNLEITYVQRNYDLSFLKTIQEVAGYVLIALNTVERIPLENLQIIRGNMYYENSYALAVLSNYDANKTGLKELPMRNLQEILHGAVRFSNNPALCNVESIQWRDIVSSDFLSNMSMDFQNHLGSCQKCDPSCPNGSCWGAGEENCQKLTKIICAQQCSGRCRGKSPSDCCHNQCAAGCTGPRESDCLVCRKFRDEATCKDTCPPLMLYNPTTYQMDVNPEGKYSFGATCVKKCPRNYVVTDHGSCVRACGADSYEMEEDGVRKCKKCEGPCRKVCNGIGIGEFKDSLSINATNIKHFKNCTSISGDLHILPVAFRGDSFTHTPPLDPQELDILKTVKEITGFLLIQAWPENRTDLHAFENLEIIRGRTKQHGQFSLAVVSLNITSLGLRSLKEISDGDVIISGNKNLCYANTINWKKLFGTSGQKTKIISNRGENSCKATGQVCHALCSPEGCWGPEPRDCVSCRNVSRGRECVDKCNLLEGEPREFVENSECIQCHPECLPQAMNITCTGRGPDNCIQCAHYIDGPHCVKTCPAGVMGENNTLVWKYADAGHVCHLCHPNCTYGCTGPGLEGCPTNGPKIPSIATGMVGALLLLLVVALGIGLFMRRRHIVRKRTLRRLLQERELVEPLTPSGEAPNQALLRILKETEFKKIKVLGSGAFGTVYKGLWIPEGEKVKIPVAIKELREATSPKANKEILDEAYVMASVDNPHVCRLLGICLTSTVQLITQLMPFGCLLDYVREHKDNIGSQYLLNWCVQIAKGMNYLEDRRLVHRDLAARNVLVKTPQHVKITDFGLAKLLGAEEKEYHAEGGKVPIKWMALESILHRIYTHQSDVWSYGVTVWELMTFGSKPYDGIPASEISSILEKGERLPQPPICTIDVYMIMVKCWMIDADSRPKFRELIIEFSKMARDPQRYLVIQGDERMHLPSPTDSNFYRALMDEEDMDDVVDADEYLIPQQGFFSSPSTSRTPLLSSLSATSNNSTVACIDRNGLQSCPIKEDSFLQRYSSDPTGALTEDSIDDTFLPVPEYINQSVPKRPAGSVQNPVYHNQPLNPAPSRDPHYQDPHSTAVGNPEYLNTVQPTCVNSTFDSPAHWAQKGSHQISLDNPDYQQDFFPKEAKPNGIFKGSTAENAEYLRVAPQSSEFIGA

Target: EGFR kinase (Homo sapiens, UniProt P00533)
Assay: Luminescence ADP production kinase assay, EGFR
Format: biochemical

COc1cc2ncnc(Nc3cccc(Cl)c3)c2cc1OC [Tyrphostin AG 1478]
IC50: < 10 nM
